# Tests used:
# By UniProt entry, the sequences of proteins in these tests, tags left out. Residues count along the entry.
# UniProt P35916, 25-1363: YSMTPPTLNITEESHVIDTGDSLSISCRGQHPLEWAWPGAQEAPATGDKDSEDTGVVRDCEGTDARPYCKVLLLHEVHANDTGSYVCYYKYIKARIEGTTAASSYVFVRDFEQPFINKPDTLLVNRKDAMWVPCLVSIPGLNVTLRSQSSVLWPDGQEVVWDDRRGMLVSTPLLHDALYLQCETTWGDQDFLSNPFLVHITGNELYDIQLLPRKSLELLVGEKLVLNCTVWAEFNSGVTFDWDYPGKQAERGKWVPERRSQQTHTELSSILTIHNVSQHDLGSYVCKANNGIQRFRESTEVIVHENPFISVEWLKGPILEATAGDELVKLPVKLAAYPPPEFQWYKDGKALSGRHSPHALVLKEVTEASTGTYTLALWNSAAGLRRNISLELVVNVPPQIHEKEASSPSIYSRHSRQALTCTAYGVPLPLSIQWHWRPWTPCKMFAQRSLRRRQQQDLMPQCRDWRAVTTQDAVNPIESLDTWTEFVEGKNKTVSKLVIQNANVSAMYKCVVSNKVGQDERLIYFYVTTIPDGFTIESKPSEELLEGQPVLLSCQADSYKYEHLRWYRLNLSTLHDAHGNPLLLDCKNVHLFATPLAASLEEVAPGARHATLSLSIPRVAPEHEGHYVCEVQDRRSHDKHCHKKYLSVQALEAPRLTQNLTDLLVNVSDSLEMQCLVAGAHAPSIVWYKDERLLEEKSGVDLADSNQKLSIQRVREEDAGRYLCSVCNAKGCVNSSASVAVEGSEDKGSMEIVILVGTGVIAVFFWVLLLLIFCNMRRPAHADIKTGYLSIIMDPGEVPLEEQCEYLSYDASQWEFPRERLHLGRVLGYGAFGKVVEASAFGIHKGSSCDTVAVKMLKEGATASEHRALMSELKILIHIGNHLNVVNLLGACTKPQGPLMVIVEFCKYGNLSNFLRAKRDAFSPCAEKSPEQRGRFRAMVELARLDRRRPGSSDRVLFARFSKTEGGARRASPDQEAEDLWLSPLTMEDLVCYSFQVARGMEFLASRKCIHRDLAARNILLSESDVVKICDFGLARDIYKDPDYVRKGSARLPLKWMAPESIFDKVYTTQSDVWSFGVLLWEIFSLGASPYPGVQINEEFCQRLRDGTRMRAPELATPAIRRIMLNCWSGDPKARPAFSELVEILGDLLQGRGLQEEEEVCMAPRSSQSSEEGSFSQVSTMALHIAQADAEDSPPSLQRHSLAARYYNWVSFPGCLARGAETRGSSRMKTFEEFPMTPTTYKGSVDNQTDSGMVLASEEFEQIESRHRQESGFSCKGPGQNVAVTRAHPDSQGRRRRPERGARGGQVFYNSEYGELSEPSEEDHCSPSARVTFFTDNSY
# VEGFR3 = VEGFR3 (Homo sapiens (Human), UniProt P35916); test: VEGFR3 Phospho ELISA assay; format: cell-based; details: HMVEC-dLyAD cells, treated 1 hour, VEGFC stimulated; phospho VEGFR3 relative to Total VEGFR3
# [1] = target: VEGFR3 cytoplasmic domain (Homo sapiens, UniProt P35916); test: VEGFR3 Biochemical assay (AlphaScreen); details: N-terminal GST-fusion enzyme, 500 μM ATP, 90 minutes at 30 degree Celsius (modified form: Hexa-His-fusion, 1 μM ATP)
smiles,measurement,setting,value
"CC(C(N)=O)c1ccccc1CCc1nc(Nc2cnn(C3CCNCC3)c2)ncc1C(F)(F)F (racemic) [Compound 56, 2-(2-(2-(2-((1-(piperidin-4-yl)-1H-pyrazol-4-yl)amino)-5-(trifluoromethyl)pyrimidin-4-yl)ethyl)phenyl)propanamide]",IC50,VEGFR3,68 nM
same,IC50,[1],27 nM
